Source: paper PMC7978378, “Discovery of novel dual adenosine A1/A2A receptor antagonists using deep learning, pharmacophore modeling and molecular docking” (PLoS Computational Biology, 2021)

Tested on: A1/A2A ARs
Experiment: cAMP functional assay, summarised over both receptors
Conditions: range over A1AR and A2AAR cAMP assays

- pIC50 towards A1/A2A ARs: 6.31–6.78
Compound: COc1cccc(C(=O)n2nc(-c3ccccc3Cl)nc2N)c1 [Compound C8]
